# Experimental data taken from US20230135894A1, “MK2 DEGRADERS AND USES THEREOF” (Kymera Therapeutics, Inc., priority 2021, published 2023).
# Chains of the proteins cited; added tags and fusions are not shown.
# UniProt P49137, whole entry: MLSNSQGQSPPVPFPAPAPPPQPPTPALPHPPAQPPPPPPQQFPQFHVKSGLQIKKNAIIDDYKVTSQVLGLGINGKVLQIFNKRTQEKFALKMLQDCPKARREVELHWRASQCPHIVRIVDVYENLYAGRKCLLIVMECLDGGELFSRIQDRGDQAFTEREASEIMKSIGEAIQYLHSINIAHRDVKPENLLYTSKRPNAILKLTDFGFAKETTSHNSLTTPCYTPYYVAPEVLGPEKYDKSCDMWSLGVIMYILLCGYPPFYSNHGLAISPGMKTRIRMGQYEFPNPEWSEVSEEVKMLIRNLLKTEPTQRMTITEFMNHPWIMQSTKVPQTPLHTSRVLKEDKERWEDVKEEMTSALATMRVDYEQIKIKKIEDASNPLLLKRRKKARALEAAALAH
# Legend:
# [1] = molecular target: T1, MK2 (Homo sapiens, UniProt P49137); test: MK2 degradation in human THP-1 monocytic cells (MSD, 24 h); details: for MK2 MSD THP-1 24 h Dmax %: THP-1 cells; for DC50: read-out: MK2 MSD THP-1 degradation 24 h GMean External Abs DC50, THP-1 cells
# Protocol: MK2 Degradation in Human THP-1 Monoctyic Cells
# (§1) The human monocytic cancer cell line THP-1 (ATCC (TIB-202)) was cultured in 96 well plates (Corning 3894) at a density of 200,000 cells per well in 100 microlitres in complete growth medium of RPMI 1640 (Gibco) pus 10% fetal Bovine Serum (Corning) and Penicillin/Streptomycin (SolarBio) at 37 degrees Celsius and 5% CO2. A serial dilution of each compound (usually 3 to 5 fold serial dilutions up to 10 separate concentration points) was added to individual wells from a 10 millimolar stock solution, at a background concentration of 0.1% DMSO and the cells were shaken at 600 rpm for 5 minutes and then were cultured for 24 hours at 37 degrees Celsius and 5% carbon dioxide. Separately, a custom MSD (MesoScaleDiscovery, L15XA-3) plate for detection of human MK2 was prepared by coating the plate with the commercial AbCam ab247272 reagent in 1×Phosphate Buffered Saline at 40 microlitres per well and incubated at 4 degrees Celsius overnight. The next day, the MSD plate was washed with 150 microlitres of Tween buffered saline, blocked with MSD blocking buffer (3% Blocker A from MSD), and washed again.
# (§2) The cell plate was centrifuged at 3,200 g for 5 minutes and the supernatant was discarded and 100 microlitres of RIPA lysis buffer (containing proteinase inhibitors, Boston BioProducts BP-115D) was added and the plate was sealed and shaken on ice for 20 minutes. The plate was centrifuged as before and 70 microlitres of sample lysate was added to the MSD plates and they were shaken at room temperature for 1 hour at 600 rpm. The MSD plate was washed 3 times as before and then the primary MK2 detection antibody (Santa Cruz sc-100393) was added at a final concentration of 1 microgram per ml at 25 microlitres per well and shaken at room temperature for 1 hour at 600 rpm.
# (§3) After 3 more washes, the secondary detection antibody (SULFO-Tag anti rabbit antibody R32AB-5) was added at a final concentration of 1 microgram per ml at 25 microlitres per well and shaken at room temperature for 1 hour at 600 rpm. After 3 more washes, the 1×MSD (diluted from 5× concentrate with water) reading buffer was added at 150 microlitres per well and read on the MSD instrument Meso Sector S 600.
# (§4) The inhibition/degradation curves and DC50 values were plotted and calculated using XL Fit (version v5.3.1.3) using equation 201 and a 4 parameter logistic model whereby fit=(A+((B−A)/(1+((x/C)D))) where A is the Bottom and B is the Top and C is the IC50 and D is the slope and high C is the signal for the DMSO treated cells and Low C is the signal is the signal for the lysis buffer.
# [2] = molecular target: T1, MK2; test: MK2 degradation in human SW1353 cells (MSD, 24 h); details: for DC50: read-out: MK2 MSD SW1353 degradation 24 h GMean External Abs DC50
# Protocol: MK2 Degradation in Human SW1353 Cells
# as §1, with “chondrocyte” for “monocytic”, “SW-1353 (ATCC(HTB-94))” for “THP-1 (ATCC (TIB-202))”, “Leibovitz's L-15 Medium” for “RPMI 1640”, “Celsius.” for “Celsius and 5% CO2.”, “Celsius.” for “Celsius and 5% carbon dioxide.”
# as §2, §3, §4
MK2 MSD THP-1 24 h Dmax % [1],DC50 [1] [nM],MK2 MSD SW 1353 24 h Dmax % [2],DC50 [2] [nM],Compound
A (A (>75%)),1 to 10,A (A (>75%)),1 to 10,C[C@@H]1Cc2[nH]c(-c3ccnc(-c4ccc(N5CCC(CN6CCN(c7cccc8c7n(C)c(=O)n8C7CCC(=O)NC7=O)CC6)CC5)cc4)c3)cc2C(=O)N1 (some centres unmarked)
A (A (>75%)),< 1,A (A (>75%)),< 1,Cn1c(=O)n(C2CCC(=O)NC2=O)c2ccc(N3CC(CN4CCN(c5ccc(-c6nccc(-c7cc8c([nH]7)C7(CCCC7)CNC8=O)n6)c(F)c5)CC4)C3)cc21 (centres unmarked)
